AlphaSeq binding of Ab-14 light chain variants to a spike HR2 peptide

Values reported by Li et al. 2023, doi:10.1038/s41467-023-39022-2 (FLAb copy).

Target: peptide PDVDLGDISGINAS, taken from heptad repeat 2 (HR2) of SARS-CoV-2 spike.

Ab-14 is the parent antibody, in scFv form: VH, then a 15-residue (Gly4Ser)3 linker, then VL. The heavy chain is unchanged in all variants.
VH: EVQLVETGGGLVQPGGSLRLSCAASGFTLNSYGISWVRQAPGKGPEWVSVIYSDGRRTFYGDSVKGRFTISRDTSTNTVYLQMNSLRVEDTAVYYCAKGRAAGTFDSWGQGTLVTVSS
VL: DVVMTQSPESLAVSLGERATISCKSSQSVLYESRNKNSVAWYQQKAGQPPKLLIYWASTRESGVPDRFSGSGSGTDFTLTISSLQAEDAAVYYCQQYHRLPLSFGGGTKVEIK

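Phage display of a naive human antibody library on the peptide gave the parent. These sequences belong to a second round, designed from the earlier measurements on random variants of the parent. Group labels follow the data file (En: ensemble of fine-tuned language models; GP: Gaussian process model; HC: hill climbing; Gen: genetic algorithm; Gibbs: Gibbs sampling; a sequence that several methods proposed may carry one label only). The assay is AlphaSeq: two haploid yeast populations carry antibody and antigen on their surface. Binding brings cells together so that they mate, and sequencing counts the barcode pairs among the diploids. A regression on co-assayed BCL2-family reference pairs converts the normalised counts of each replicate to an apparent Kd. Each pool was mated in six replicate cultures.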

The parent's light chain CDRs are KSSQSVLYESRNKNSVA, WASTRES, QQYHRLPLS; each variant's own CDRs replace them letter for letter.
Variants here have more than six changes.
Values are log10 of the apparent Kd in nM; lower means stronger binding.
An entry "nd" has no value in the source: the pair was not observed among the diploids in that replicate. This suggests poor binding but is not conclusive.
The authors averaged sequences with at least three values out of six and counted those with two or fewer as poor binders.

| CDR-L1 | CDR-L2 | CDR-L3 | group | replicates, log10 nM | empty controls |
|---|---|---|---|---|---|
| KVSNQVDYEDRNKNAVA | DASTRES | QQYHRLPLS | GP_Gibbs | 0.93 / 1.31 / 0.58 / 0.77 / 0.68 / 1.23 | 0/18 |
| IVSQLMLWGLHAKNSIA | EAEMRLN | QQYERLPLF | En_Gen | nd / nd / nd / nd / nd / nd | 0/18 |
| NMEGVEFEIAQHGNSVA | GVDLREA | QQYARLPLH | En_Gibbs | 0.76 / 0.85 / 0.56 / 0.91 / 0.67 / 1.20 | 1/18 (2.18) |
| KMGMTFQQDLMEEYSVA | DHMLRVT | QQYGRLPLS | En_Gibbs | 2.20 / 3.70 / nd / 1.73 / 2.51 / 2.41 | 0/18 |
| TVKAELEMFAQDKHSVA | EAVERAS | QQYHRLPLG | En_Gibbs | 0.76 / 0.76 / 0.76 / 0.46 / 0.58 / 1.05 | 0/18 |
| KIYQAMHTLSQHKDNVA | DVNERGS | QQYYRLPLS | En_Gen | 0.54 / 0.43 / 0.38 / 0.47 / 0.47 / 0.63 | 1/18 (2.14) |
| MISQVMNTLTRTGNNVA | DLAERED | QQYFRLPLS | En_Gen | nd / nd / nd / 0.73 / 1.41 / nd | 0/18 |
| QISGIQGHMSTIKNNVA | EMVTRAN | QQYERLPLS | En_Gen | -0.69 / -0.91 / -1.82 / -1.76 / -2.41 / -1.51 | 0/18 |
| KIGGVTNGMSRSKNSVA | EQSTRED | QQYNRLPLS | En_HC | 0.66 / 0.76 / 0.38 / 0.69 / 0.45 / 0.49 | 0/18 |
| KIGMTLNQLYEKVNNVA | DLVTREL | QQYHRLPLS | En_Gen | 1.02 / 0.80 / 0.79 / 0.40 / 0.51 / 0.76 | 0/18 |
| KLSGSWLYQSRNSNAVA | EASQREQ | QDYHRLPLS | GP_Gibbs | 0.12 / 0.08 / 1.23 / 0.10 / 0.05 / 0.55 | 1/18 (2.01) |
| KLSQITGHLSVSKNNVA | EMETREN | QQYDRLPLS | En_Gen | 1.37 / 0.92 / 1.65 / 1.40 / 1.12 / 1.52 | 1/18 (2.53) |
| MVYESMDQAMRTHNSIA | DNQTRED | QQYDRLPLS | En_Gen | 2.24 / nd / 2.17 / 2.58 / 3.45 / nd | 0/18 |
| KLSQEMEYESRNPNSVA | QASERCS | QQYHRLPLS | GP_Gibbs | -0.09 / -0.26 / -0.26 / -0.29 / -0.27 / -0.11 | 1/18 (2.95) |
| FITGNYYDKYQASNSIA | DEAHIMA | QQYDLLPLS | En_Gibbs | nd / nd / nd / nd / nd / nd | 0/18 |
| KVQQSELGESRHDNSVA | NASKRES | QQYHRLPLS | GP_Gibbs | 0.39 / 0.22 / 0.22 / 0.10 / 0.02 / 0.46 | 0/18 |
| TMLHELIQDDPMYNNVA | DGSLKTA | QQYYRLPLS | En_Gibbs | nd / 0.99 / 2.37 / 1.99 / 0.63 / 1.72 | 1/18 (1.67) |
| IIAQLMYWGNKSANSIA | QAEERLN | QQYHHLPLS | En_Gen | nd / nd / nd / nd / nd / nd | 0/18 |
| MISQILNMGQFAINSVA | QASIRCN | QQYDRLPLA | En_Gen | 1.17 / 1.68 / 0.90 / 1.58 / 1.81 / 1.32 | 1/18 (3.06) |
| NLPMKELGMSWNVNNVA | DSEQRMK | QQYSRLPLM | En_Gibbs | 0.11 / 0.40 / 0.36 / 0.34 / 0.03 / 0.37 | 0/18 |
| KLTMVQGTEKVRGNNVA | EMETREN | QQYNRLPLS | En_Gen | 0.29 / 0.04 / 0.08 / -0.13 / -0.10 / 0.28 | 3/18 (2.12) |
| KQQQSALGEERNFNSVA | HASTRIS | QQYHRLPLS | GP_Gibbs | 1.31 / 0.93 / 0.87 / 0.83 / 0.91 / 1.01 | 2/18 (2.46) |
| MVYQAAMMGGVARNSIA | NATMRPD | QQYHRLPLM | En_Gen | 0.74 / 0.41 / 0.59 / 0.59 / 0.35 / 0.56 | 2/18 (2.85) |
| KFLSLSLHQTGNLNSVA | DAEERQE | QQYMRLPLM | En_Gibbs | 0.28 / 0.20 / 0.21 / -0.03 / 0.28 / 0.82 | 0/18 |
| TISQLYNMGQFAINSVA | QASERSN | QQYDRLPLM | En_Gen | 0.75 / 0.43 / 0.47 / 0.66 / 0.17 / 0.24 | 2/18 (2.99) |
| AFSGSHLYESRNQNSVA | NASTREE | QQYHRLPLS | GP_Gibbs | -0.30 / -0.40 / -0.55 / -0.59 / -0.53 / -0.33 | 1/18 (2.35) |
| KISMLQRYESQAKNSIA | EMSRREN | QQYHRLPLS | En_HC | 0.19 / 0.09 / -0.09 / -0.16 / 0.06 / 0.12 | 0/18 |
| TLYGLSVSMSKNKNSVA | EMTTREK | QQYDRLPLE | En_Gen | 1.41 / 1.61 / 1.52 / 1.56 / 1.50 / 1.55 | 3/18 (3.05) |
| HFQHLGFGDFAWANNIA | ERSQVCE | QQYFRLPLG | En_Gibbs | 0.99 / 1.07 / 1.25 / 0.86 / 0.64 / 0.89 | 0/18 |
| TLTQVQGMESHNRDNVA | DLSTRGN | QQYDRLPLS | En_HC | 0.67 / 0.04 / 0.42 / 0.53 / 0.22 / 0.23 | 0/18 |
| KLSQVTHSEHRQKNSIA | EMVTREK | QQYDRLPLS | En_HC | nd / 1.79 / 1.76 / 2.25 / 2.01 / 1.79 | 0/18 |
| KIDISELGESVNKNSVA | NASTRME | QQYHRLPLS | GP_Gibbs | 0.31 / 0.23 / 0.23 / 0.24 / 0.51 / 0.58 | 2/18 (3.12) |
| KISQMSRVGSTHSNSIA | EEVTRAK | QQYHRLPLA | En_Gen | 1.64 / 0.96 / 0.82 / 1.02 / 0.63 / 0.15 | 1/18 (1.15) |
| MIYGAQRELGLAANSIA | DNVTRYD | QQYERLPLS | En_Gen | nd / nd / nd / nd / nd / nd | 0/18 |
| KVSQNVLMMSRNKNSVA | DNSTSGS | QQYHRLPLS | En_HC | 0.22 / 0.67 / 0.20 / -0.10 / 0.69 / 0.33 | 0/18 |
| MISQLYNMGTFAINSVA | QASIRNE | QQYDRLPLE | En_Gen | nd / 2.37 / 1.70 / 1.52 / 1.38 / 3.11 | 0/18 |
| HISDMLGGDHKIAHNIA | NTGVTSR | QQYSRLPLI | En_Gibbs | 0.72 / 0.34 / 0.66 / 0.24 / 0.42 / 0.15 | 1/18 (1.91) |
| HMMSGSVEQWNIQNAVA | EMSEVYD | QQYVSLPLS | En_Gibbs | 1.08 / 1.00 / 1.97 / 1.75 / 0.36 / 1.56 | 0/18 |
| KIGHTLNTLYEKANNVA | DLVEREN | QQYFRLPLS | En_Gen | 0.83 / 0.81 / 1.14 / 0.54 / 0.94 / 1.07 | 1/18 (2.77) |
| MFSQGVMYGWLARNSVA | NSSTRES | QQYHRLPLS | En_HC | 0.65 / 1.39 / 1.32 / 0.56 / 0.56 / 0.77 | 0/18 |
| TISQMTSLFSQTINNVA | EVSTREN | QQYDRLPLS | En_Gen | nd / nd / nd / 0.69 / nd / 1.22 | 0/18 |
| KLSQSWMQEERNKNSVA | QASTREQ | QQYHRLPLS | GP_Gibbs | 0.15 / 0.06 / 0.01 / -0.14 / -0.05 / 0.21 | 3/18 (3.58) |
| KISMLINMTFEQSNNVA | EMVTREK | QQYNRLPLS | En_Gen | 0.52 / 0.89 / 0.41 / 0.61 / 0.98 / 1.13 | 0/18 |

Repeated from above, the 4 best binders with a signal in all replicates:

CDR-L1,CDR-L2,CDR-L3,group,"replicates, log10 nM",empty controls
QISGIQGHMSTIKNNVA,EMVTRAN,QQYERLPLS,En_Gen,-0.69 / -0.91 / -1.82 / -1.76 / -2.41 / -1.51,0/18
AFSGSHLYESRNQNSVA,NASTREE,QQYHRLPLS,GP_Gibbs,-0.30 / -0.40 / -0.55 / -0.59 / -0.53 / -0.33,1/18 (2.35)
KLSQEMEYESRNPNSVA,QASERCS,QQYHRLPLS,GP_Gibbs,-0.09 / -0.26 / -0.26 / -0.29 / -0.27 / -0.11,1/18 (2.95)
KISMLQRYESQAKNSIA,EMSRREN,QQYHRLPLS,En_HC,0.19 / 0.09 / -0.09 / -0.16 / 0.06 / 0.12,0/18

Of ten entries with the parent sequence, four were seen in most replicates (averages 0.34 to 2.37), three in one and three in none, so single entries are noisy.
Empty control strains, which show no peptide, gave a signal in 4% of pairings with all light chain designs; the median was 2.64 and 95% of these signals were weaker than 1.59. No background was subtracted. The control count says in how many pairings with the empty strains this scFv gave a signal, with their mean in brackets.
The range of this assay differs from that of the first round, and the authors advise against merging the two.